Test results from US10357438B2, “Metal salt compositions” (Colgate-Palmolive Company, priority 2014, dated 2019).

Test system: five species, planktonic mix of representative oral species (Actinomyces viscosus, Lactobacillus casei, Streptococcus oralis, Fusobacterium nucleatum, and …)
Details: 1% elemental Zn final concentration; 1 h incubation; resazurin fluorescence

Q: Which “% viability” value does the source give for sodium dizinc citrate chloride here?
A: The value was 2.0%.
